The text below walks through data of PMC4414788 (Chemico-biological interactions, 2015).

The target of this experiment is T1, ALDH3A1 (Homo sapiens, UniProt P30838).
T1 sequence (P30838 1-453): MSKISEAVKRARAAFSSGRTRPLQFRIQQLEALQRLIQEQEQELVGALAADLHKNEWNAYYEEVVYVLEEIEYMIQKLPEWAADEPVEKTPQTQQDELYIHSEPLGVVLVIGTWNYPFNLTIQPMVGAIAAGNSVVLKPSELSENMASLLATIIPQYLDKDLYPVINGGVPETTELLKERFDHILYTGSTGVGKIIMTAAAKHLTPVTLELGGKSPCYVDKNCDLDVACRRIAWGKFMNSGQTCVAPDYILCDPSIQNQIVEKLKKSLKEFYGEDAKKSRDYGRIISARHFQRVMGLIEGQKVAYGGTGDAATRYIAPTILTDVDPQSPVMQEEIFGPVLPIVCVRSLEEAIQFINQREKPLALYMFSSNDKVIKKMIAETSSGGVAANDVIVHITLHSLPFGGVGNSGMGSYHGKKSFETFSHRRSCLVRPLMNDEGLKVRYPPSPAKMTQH
As to the kind of experiment: biochemical. The following applies: read-out: % of control remaining.

The structures appear in SMILES notation.

With `COC(=O)C(C)Oc1ccc2c(C)cc(=O)oc2c1` (stereo not shown) [2BS4, methyl-2-[(4-methyl-2-oxo-2H-chromen-7-yl)oxy]propanoate], the remaining activity at 10 µM came out at 94.5%.
